Values quoted from earlier work, collected in publication PMC3748600 (Chembiochem : a European journal of chemical biology, 2012).
pKi: −log10 of the molar value.

By UniProt entry, the sequences of proteins in these tests, tags left out.
UniProt P34972, whole entry: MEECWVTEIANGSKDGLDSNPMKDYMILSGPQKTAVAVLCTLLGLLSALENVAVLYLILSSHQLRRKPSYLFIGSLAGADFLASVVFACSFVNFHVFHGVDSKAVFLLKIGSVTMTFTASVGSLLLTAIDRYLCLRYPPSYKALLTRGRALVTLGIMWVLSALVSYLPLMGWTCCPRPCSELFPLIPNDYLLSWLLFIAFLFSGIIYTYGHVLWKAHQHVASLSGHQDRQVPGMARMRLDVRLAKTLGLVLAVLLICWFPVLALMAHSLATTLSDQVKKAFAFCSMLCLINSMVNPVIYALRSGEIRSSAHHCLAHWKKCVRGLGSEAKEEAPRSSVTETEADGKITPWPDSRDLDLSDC

Target: CB2 receptor (Homo sapiens, UniProt P34972)
Details: read-out: Ki for CB2; cited from earlier work

CCCCC/C=C\C/C=C\C/C=C\C/C=C\CCCC(=O)NCCO [Compound 1, N-arachidonoylethanolamine]
pKi: 5.72
